In general, Kd refers to the free concentration of one partner at which half of the binding sites on the other are occupied at equilibrium, for simple one-to-one binding. A lower Kd goes with higher affinity.

Protein sequences, listed by entry. Tags and fused reporters are not part of them. Residues count along the entry.
UniProt P11275, 1-315 T305A/T306A: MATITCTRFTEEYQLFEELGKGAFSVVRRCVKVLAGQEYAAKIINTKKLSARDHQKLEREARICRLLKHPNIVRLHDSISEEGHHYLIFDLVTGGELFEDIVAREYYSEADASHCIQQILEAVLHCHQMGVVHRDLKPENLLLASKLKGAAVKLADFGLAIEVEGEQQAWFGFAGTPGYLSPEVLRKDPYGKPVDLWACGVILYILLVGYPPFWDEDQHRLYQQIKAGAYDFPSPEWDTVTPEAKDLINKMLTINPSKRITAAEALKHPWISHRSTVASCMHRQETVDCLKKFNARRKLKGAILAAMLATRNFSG

This note sets out measurements from article doi:10.1101/2025.03.18.643923, “Widely used CaMKII regulatory segment mutations cause tight actinin binding and dendritic spine enlargement in unstimulated neurons” (bioRxiv, 2025).

This experiment addresses Trx-CaMKIIα (1-315) T305A/T306A (UniProt P11275 1-315, T305A | T306A). Nature of the experiment: ITC; MicroCal PEAQ, 25 mM HEPES pH 7.5, 150 mM NaCl, 2 mM MgCl2, 1 mM ADP; syringe 300 μM EF3-4, cell 30 μM Trx-CaMKIIα 1–315; single site binding model. The conditions noted are these: both partners purified.

B1: Human α-actinin-2 EF3-4 (positions 827-894) (domain or fragment, UniProt P35609 827-894, looked up)
chain: TAEQVIASFRILASDKPYILAEELRRELPPDQAQYCIKRMPAYSGPGSVPGALDYAAFSSALYGESDL
notes: α-actinin-2, human, third and fourth EF hands, positions 827-894; also called α-actinin-2 EF hands 3-4; source: E. coli Rosetta pLysS, purified (Ni-NTA, Glutathione Sepharose, Tev cleavage, Superdex 75); not shown: His, N-terminal, cleaved; GST, N-terminal, cleaved
Molecule B1 returned a Kd of 154 nM.
